Test results: patent US10876003B2, “Class of stable heptamethine cyanine fluorophores and biomedical applications thereof” (priority 2014, dated 2020)

assay: Maximum absorbance wavelength in pH 7.4 phosphate-buffered saline; assay type: physicochemical; details: 2 μM in 0.1 M PBS, pH 7.4, with 0.1% DMSO (v/v)
Experimental: Table 1 includes exemplary compounds according to formula II, in which n is 2, R^1 is —CH2—, m is 2, R^2 is methyl, R^14 to R^17 are methyl, and R^5, R^6, R^8, R^10, R^11 and R^13 are hydrogen. Other substituents are as indicated. The maximum absorbance wavelength (λmax) was measured in pH 7.4 phosphate-buffered saline.
Unless stated otherwise, reactions were conducted in oven-dried glassware under an atmosphere of nitrogen or argon using anhydrous solvents (passed through activated alumina columns) All other commercially obtained reagents were used as received. […] Flash column chromatography was performed using normal phase or reverse phase on a CombiFlash® Rf 200i (Teledyne Isco Inc.). […] Data for ^1H NMR spectra are reported as follows: chemical shift (6 ppm), multiplicity, coupling constant (Hz), and integration. ^13C NMR spectra were recorded on Varian spectrometers (at 100 or 125 MHz). Data for ^13C NMR spectra are reported in terms of chemical shift. IR spectra were recorded on a JASCO FT/IR 4100 spectrometer and are reported in terms of frequency of absorption (cm^−1). High-resolution LC/MS analyses were conducted on a Thermo-Fisher LTQ-Orbitrap-XL hybrid mass spectrometer system with an Ion MAX API electrospray ion source in positive ion mode. Separations were carried out on a narrow-bore (50×2.1 mm), Zorbax Rapid-Resolution, reversed-phase C18 (3.5 μm) column with a flow rate of 250 μL/min with a 10 min, 2-90% gradient of MeCN/H2O containing 0.1% HCOOH. […] Fluorescence traces and quantum yield measurements were recorded on a PTI QuantaMaster steady-state spectrofluorimeter operated by FelixGX 4.0.3 software, with 10 nm excitation and emission slit widths, 0.1 s integration rate, and enabled emission correction.

Row | λmax | SMILES
1 | 760 nm | CCCN1/C(=C/C=C2\CCCC(/C=C/C3=[N+](CCC)c4ccccc4C3(C)C)=C2OCCN(C)C(C)=O)C(C)(C)c2ccccc21 [Compound 11]
2 | 768 nm | CCCN1/C(=C/C=C2\CCCC(/C=C/C3=[N+](CCC)c4ccccc4C3(C)C)=C2OCC[N+](C)(C)C)C(C)(C)c2ccccc21 [Compound 12]
3 | 668 nm | CCCN1/C(=C/C=C2\CCCC(/C=C/C3=[N+](CCC)c4ccccc4C3(C)C)=C2N(C)CCOC)C(C)(C)c2ccccc21 [Compound 16]
4 | 689 nm | CCCN1/C(=C/C=C2\CCCC(/C=C/C3=[N+](CCC)c4ccccc4C3(C)C)=C2N(C)CCOC(C)=O)C(C)(C)c2ccccc21 [Compound 17]
